## AlphaSeq binding of Ab-14 heavy chain variants to a spike HR2 peptide

Antigen: PDVDLGDISGINAS, a 14-residue peptide of the SARS-CoV-2 spike HR2 region.

Each scFv is VH, a 15-residue (Gly4Ser)3 linker, VL, as in the parent Ab-14, and differs from it in the CDRs of the heavy chain only.
VH: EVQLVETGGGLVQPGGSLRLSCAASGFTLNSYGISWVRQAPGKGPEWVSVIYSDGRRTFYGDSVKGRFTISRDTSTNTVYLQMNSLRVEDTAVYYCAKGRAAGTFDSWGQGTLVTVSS
VL: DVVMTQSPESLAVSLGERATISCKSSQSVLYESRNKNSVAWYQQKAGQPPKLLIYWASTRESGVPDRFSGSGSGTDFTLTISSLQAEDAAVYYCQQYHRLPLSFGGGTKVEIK

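The starting antibody came from a phage panning campaign against this peptide. The library (AAYL49) carries one to three amino acid substitutions per variant, with no insertions or deletions. Affinity was read by AlphaSeq, a pooled yeast mating assay with surface-displayed partners. Mating (16 h, 30 °C) was followed by selection of diploids and sequencing of their barcodes. A regression on co-assayed BCL2-family reference pairs converts the normalised counts of each replicate to an apparent Kd. The assay was run in three technical replicates.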

Each variant is given by its three heavy chain CDRs, as the data file delimits them; those of the parent are GFTLNSYGIS, VIYSDGRRTFYGDSVK, GRAAGTFDS.
Kd is apparent (estimated from mating counts) and averaged on the log scale over replicates with a signal. Smaller is tighter.
An entry "no signal" has no value in the source: the pair was not observed among the diploids in any replicate. This suggests poor binding but is not conclusive.
As a blank, each scFv also met three strains without target: over library AAYL49, 15% of these pairings were detected, typically at 11 µM and seldom below 680 nM.

CDR-H1,CDR-H2,CDR-H3,apparent Kd,seen in
GFTLNSYGIS,VIYSDGRRTFYGASVK,GRAANTFSS,no signal,0/3
QFTLNSYGIS,VLYSDGRDTFYGDSVK,GRAAGTFDS,6.3 µM,2/3
GFWRNSYGIS,VIYSDGRRTFYGDSVK,GRAAGTSDS,no signal,0/3
GFTLNSYGIS,VIASDGRRQFYTDSVK,GRAAGTFDS,no signal,0/3
GFTLNTYGWS,VIYSDGRRTFYGDSVK,GRAAGTDDS,980 nM,1/3
GFTLNSYGIH,VIYSDGRRTFLGDSVK,GGAAGTFDS,no signal,0/3
GFTLRSYGIS,VIYQDGRRTFYGDVVK,GRAAGTFDS,no signal,0/3
GFTLNSYGIS,VIYSLGRRTFKGCSVK,GRAAGTFDS,no signal,0/3
GFTLNSYGIS,VIYSMHRRTFYGDSVK,GRAAGTFDS,no signal,0/3
GFTLNSYGIS,VIYSDGRRTLYGDSVK,GRAAYTFDS,2.9 µM,3/3
GFTLNSYGIS,VIYSIARRTFYGDSVK,GRAAGTFIS,no signal,0/3
GFTLNSYLIS,VIYSDGRRTFYGDSVK,GRAAGTACS,no signal,0/3
EFTLNSYGIS,VIYSDGRRTFAGDSMK,GRAAGTFDS,10 µM,2/3
GFTLNSYGIS,VIYSDGRSTAYGDSVK,GRAAGFFDS,12 µM,1/3
GFTLNSYGIS,VIYSDGRRTFYGDHVK,GRAAATRDS,150 µM,2/3
GFTLNSYGIS,VDWSDGRRTFYDDSVK,GRAAGTFDS,no signal,0/3
GFTLNSYGIS,VIYSDGRQTFFGDSVK,GRAAGTFDS,no signal,0/3
GTTLNSQGIS,VIYSDGRRTFYGDSVK,GRAAGTFDS,no signal,0/3
IFTLNSYGIS,VIYSDGRRTFYGDSVS,GRAARTFDS,no signal,0/3
GFPLNSYGIS,VIYSDGRATFYGDSEK,GRAAGTFDS,no signal,0/3
CFTLNAYGIS,VIYSDGRRTFYGDSVK,GRAAGTFIS,no signal,0/3
GFTLNSYGIS,VIISDGRRTFYGASVP,GRAAGTFDS,no signal,0/3
IFTLNSYGIS,VIYSDGRRTWYGDSVK,GRAASTFDS,no signal,0/3
GFTLNSYGIK,VIYSDGRRTFFGDIVK,GRAAGTFDS,no signal,0/3
GFTTNSYGIS,SIYSDGRRTFYGDSVK,GRAAGTFSS,no signal,0/3
GFTLASYGIS,VIYSDGRRSFYGDSTK,GRAAGTFDS,10 µM,1/3
GFTLNSYGIS,VIYSDGRRTPYGDSVK,GTAAGKFDS,no signal,0/3
GFFLNSYGIS,VIYSDGRRTFYGDNVK,GRAAGTFDS,78 nM,3/3
GFTLNSYGIS,VIYSGGRRTFYGDSVK,PRAAGTFDS,no signal,0/3
GFTLNSQGIS,VICSDGRRTFYGDSVK,GRAAGTFDS,38 µM,2/3
GFTLNSYGIS,VIYSDGRRTFNGDSVK,GKAAGTFDS,1.3 µM,2/3
WFTLNSYGIS,VIYSDGRRTFYGHSVK,GRAAWTFDS,no signal,0/3
GFTLNSYGIS,VIYSLGNRTFYGGSVK,GRAAGTFDS,no signal,0/3
GFTLQSYGIS,VIYSDGRRTFYGDSVR,GRAAGTFDS,8.8 nM,3/3
GFTLNVYGIS,VIYSDIRRDFYGDSVK,GRAAGTFDS,no signal,0/3
GFTLNSYGIS,VIYSDTRRTFYGDSVK,GNAAGTVDS,no signal,0/3
GFTLNSYGIS,VIYSDGRRTMYGDSVA,GRAAGTFDY,10 µM,1/3
GFTLNSYGIS,VIYSDGNRTCYGDSVK,GVAAGTFDS,9.9 µM,3/3
GFTLNSYGIS,VIYSDGRRTFYGDSVK,PRAAGTHRS,5.7 nM,3/3
VFTLNSYGMS,VIYSDWRRTFYGDSVK,GRAAGTFDS,no signal,0/3
GFTLNSCNIS,VIYSDGRRTFYGDSVK,GRAAGDFDS,no signal,0/3
GFTFNSYGIS,VIYSDGRRTFYGVSVR,GRAAGTFDS,1.6 µM,2/3
GFTLNSYGIS,VIYSDGRRTFYCDSVK,GNCAGTFDS,no signal,0/3
GFTLNSYGIS,NIYSDGRRTFGGDSVK,GRAAGDFDS,4.4 µM,1/3
GFTLNSYGIS,VIYGDGRRTWYGESVK,GRAAGTFDS,2.5 µM,3/3
RFTRNSYGIS,VIYSDGRRRFYGDSVK,GRAAGTFDS,no signal,0/3
GFTLNSFGIS,VIYSDGRRTFYGDSVK,GIAAGTFAS,510 nM,3/3
GFTLNSYWTS,VIYSDGRRTFGGDSVK,GRAAGTFDS,1.2 µM,2/3
GFTLNSYGIS,RHYSQGRRTFYGDSVK,GRAAGTFDS,1.9 µM,1/3
GFTLCSYGIS,VIYSDGQRTFYGDSVK,ARAAGTFDS,96 nM,2/3
GFTLNRYGIS,VIYGDGRRTFYGDSVK,GRAAGTFDC,270 µM,3/3
GFTLNSYGIS,VIYSDGRRTFYGDSVK,GRAMSTMDS,no signal,0/3
GFTYNSYMIS,VIYSDGRRTFYGDSVC,GRAAGTFDS,no signal,0/3
GFTLNSYGIS,WIYSDGRRTFYGDSVK,GRAAGTYYS,no signal,0/3
GFTANSYGIS,VIYSDGRRTFYGDSVC,GRAAGTFDS,no signal,0/3
GFTLNSYKIS,VIYSDGRRTFYGPSVK,GRAAGCFDS,1.5 µM,1/3
GFTLNSYGMS,VIYSDGRRTFWGDSVK,GNAAGTFDS,no signal,0/3
GFTLNSYGYS,VIYSDGRRYGYGDSVK,GRAAGTFDS,no signal,0/3
HFTLNSYGIS,VPYSDGRRTFYGASVK,GRAAGTFDS,no signal,0/3
GFTDNSYGIS,VIYSDGRFTFYGDSVG,GRAAGTFDS,no signal,0/3
GFTLNSYPIS,VIYSDGRRTAYGDSVK,GRAAWTFDS,no signal,0/3
GFTWNSYGIS,VIYSDDRRTFYGDSVK,GDAAGTFDS,no signal,0/3
GFTLNSYGIS,CIYSDKRRTFYGDSVK,ERAAGTFDS,260 µM,2/3
GFTWNSYGIS,VIYSDGRATFYGDSVK,GDAAGTFDS,no signal,0/3
HFTLISYGIS,VIYSDGRRTFYWDSVK,GRAAGTFDS,no signal,0/3
GFTLNSYGIE,DIYSDGRRTFYGDSVK,GRARGTFDS,no signal,0/3

Reference: Engelhart et al. 2022, doi:10.1038/s41597-022-01779-4. File: FLAb, binding data.